This note sets out measurements from patent publication US9266930.

Experiment [1] concerns the target T1, HLA-DR2w2β1 (DRB1*1501) (human).
T1 chain 1: not shown
T1 chain 2: not shown

The target in the next experiment is HLA-A*0202 (human). In words: competition with 125I probe peptide for purified HLA, gel filtration.

The term IC50 denotes the concentration that inhibits the measured activity by half. Lower therefore signals greater potency in that assay. For KCNLYADSAWENVKN (modifications not checked) [35.0172 … (Pf SSP2 211)], the IC50 in experiment [1] is 18.2 µM.

FMKAVCVEV (modifications not checked) [1167.16] gave an IC50 with HLA-A*0202 (human) of 0.307 µM.
